Ab-14 heavy chain CDR variants: yeast mating affinities

Values reported by Li et al. 2023, doi:10.1038/s41467-023-39022-2 (FLAb copy).

Binding partner: SARS-CoV-2 spike HR2 peptide, sequence PDVDLGDISGINAS.

Ab-14 is the parent antibody, in scFv form: VH, then the linker GGGGSGGGGSGGGGS, then VL. The light chain is unchanged in all variants.
VH: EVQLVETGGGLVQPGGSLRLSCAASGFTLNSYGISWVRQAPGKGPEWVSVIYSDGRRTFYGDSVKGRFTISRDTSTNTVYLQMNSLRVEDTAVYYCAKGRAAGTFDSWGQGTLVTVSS
VL: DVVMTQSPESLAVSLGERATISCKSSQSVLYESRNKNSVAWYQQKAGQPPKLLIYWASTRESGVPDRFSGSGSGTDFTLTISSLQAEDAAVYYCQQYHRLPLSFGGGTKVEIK

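The parent was found by panning a naive human phage display library on the peptide. This is the validation round: designs drawn from the data on random variants, tested in the same kind of assay. Group labels follow the data file (Ctrl: baseline library sampled from a position-specific scoring matrix, with some repeated check sequences; Rand: our label for a block that the file lists under HC and that is probably the random mutants of the ten best first-round binders; En: ensemble of fine-tuned language models; GP: Gaussian process model; GPLM: also part of the Gaussian process libraries; HC: hill climbing; Gen: genetic algorithm; Gibbs: Gibbs sampling; a sequence that several methods proposed may carry one label only). Affinity was read by AlphaSeq, a pooled yeast mating assay with surface-displayed partners. Mating (16 h, 30 °C) was followed by selection of diploids and sequencing of their barcodes. Read counts were normalised to the haploid input and turned into Kd by a linear fit to BCL2-family pairs of known affinity, for each replicate. Mating was done six times.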

Each variant is given by its three heavy chain CDRs, as the data file delimits them; those of the parent are GFTLNSYGIS, VIYSDGRRTFYGDSVK, GRAAGTFDS. Variants here have at most six changes. The read-out is the apparent dissociation constant on a log10 scale (nM): the lower, the stronger. The mean shown is taken over the replicates in which the pair was detected. "nd" means that the variant was in the library but no mating with the target was seen in any replicate; the authors take this as a sign of poor binding, and no number exists. Of ten entries with the parent sequence, four were seen in most replicates (averages 0.34 to 2.37), three in one and three in none, so single entries are noisy. The authors' rule: three or more of the six replicates give a measured affinity, fewer mean a poor binder. Nonspecific signal, from three strains lacking the peptide, appeared in 1% of pairings of all heavy chain designs, centred on 2.08 (5% of these signals below 0.84); values are not corrected for it. The range of this assay differs from that of the first round, and the authors advise against merging the two.

Variant GFGLNDYGIS / VIYSDGRRTFYIDSVK / GNAAGTFDS [GPLM_HC] gave nd (0 of 6 replicates). With GFTLNSAGIS / VIYSDGRRTFYGDDVK / GRAAGLFDS [Ctrl] the result was nd (0 of 6 replicates). Variant GFQLNSYGIS / VIYSDGRRTFYGDSVE / GQAADTFDS [Ctrl] showed nd (0 of 6 replicates). With GFTLNSYGIS / VIYSDGRRTFYIDSVK / ARAAGTFDS [Ctrl] the result was nd (0 of 6 replicates). With GFTLNSYGIS / VIYADGRRTFYGFSVK / GRAAGTFDS [Ctrl] the result was nd (0 of 6 replicates). For GFTLNSYGIS / VIYADGRRTFYGDSVK / GRAAGLFDS [Ctrl], the assay gave 2.22 (1 of 6 replicates). Variant GFDLNSYGIS / VIYSDGKRTFYADSVK / GRAAGTFDS [GPLM_Gen] showed 2.88 (1 of 6 replicates).

Variant GFTLKSYGIS / VIYSDGRRTFYDDSVK / GRLAGTFDS [GP_HC] showed 1.89 (2 of 6 replicates). Variant KFDLNSYGIS / VIYSDGRRTFYGDSVK / GRMAGTFDS [GP_Gen] showed 1.74 (5 of 6 replicates). With GFSLNSYGIS / VIYSDGRRTFYGDRVK / GWTAGTFDS [GP_Gen] the result was 1.73 (5 of 6 replicates). Variant GFTLNEYGIS / VIYSDGRRTFYSDSVK / GFAAGTFDS [GP_HC] gave 0.26 (6 of 6 replicates). For GFDLNEYGIS / VIYADGRRTFYSDSVK / GTNAGTFDS [En_HC], the assay gave -0.64 (6 of 6 replicates). Variant MFSLNEYGIS / VIYSDGRRTFYGDSVK / GRAAGTFDS [GP_Gibbs] gave 0.42 (5 of 6 replicates). For GFDLNSYGIS / VIYSDGRRTFYADKVK / GKAAGTFDS [GP_Gen], the assay gave 0.53 (6 of 6 replicates).

Variant GFTLNSYGIS / VIYSDGWRTSYGDSVV / GRAAGTFDS [Ctrl] gave nd (0 of 6 replicates). Variant GFTLNSYGIS / VSSSDGRRTFYDDSVK / GQLAGTFDS [Rand] gave -0.05 (6 of 6 replicates). With GFTLNSYGIS / VIYSDGRRTFYKDSVK / GQEAGTFDT [GPLM_Gen] the result was nd (0 of 6 replicates). With GYTLNSYGIS / VIYSDGHRTFVSDSVK / GRAGGTFDS [Rand] the result was nd (0 of 6 replicates). Variant GFSLNSYGIS / VIYSDGRRTFYGDHVK / GKTAGTFDS [GP_Gen] showed 0.43 (6 of 6 replicates). Variant GFSLNEYGIS / VIYSDGQRTFYGDSVK / GRAAGTFDS [GPLM_Gen] showed nd (0 of 6 replicates). For GTDLNSYWIS / VIYSDGRRTFYGDSVK / GRMAGTFDS [Ctrl], the assay gave nd (0 of 6 replicates).

With GFTLDSYGIS / VIYSDGRRTFNGLSVK / GRAAGTALS [Rand] the result was nd (0 of 6 replicates). With GFSLNNYGIS / VIYSDGRRTFYIDSVK / GNAAGTFDS [GP_Gen] the result was 0.28 (6 of 6 replicates). With GFGLNSYGIS / VIYSDGRRTFYGDSVK / GRAAKTFDS [Ctrl] the result was nd (0 of 6 replicates). With GFSLNDYGIS / VIYSDGRRTFYIDSVK / GRAAGTFDS [GPLM_Gen] the result was 0.42 (6 of 6 replicates). With GFTLNSYGIS / VIYSDGLRTFYSDSVK / GRTAGTFDS [GPLM_Gibbs] the result was -0.10 (6 of 6 replicates). With GFSLNSYGIS / VIYSDGRRTFYGDSVK / GREAGTFDN [GPLM_Gibbs] the result was 0.44 (6 of 6 replicates). With GFTLDSYGIS / VIYSDGRRTFYDDRVK / GQLAGTFDS [GP_HC] the result was 1.31 (5 of 6 replicates).

Variant GFDLNSYGIS / VIYSDGRRTFYADSVK / GRVAGTFDT [GPLM_Gibbs] gave 0.87 (3 of 6 replicates). Variant GFTRNSYGIS / VIYSDGRRTFYGDSVK / WRARGTFDA [Ctrl] showed nd (0 of 6 replicates).

3 of these entries, quoted again:

| CDR-H1 | CDR-H2 | CDR-H3 | group | mean, log10 nM | replicates with signal |
|---|---|---|---|---|---|
| GFTLNSYGIS | VSSSDGRRTFYDDSVK | GQLAGTFDS | Rand | -0.05 | 6 of 6 |
| GFSLNNYGIS | VIYSDGRRTFYIDSVK | GNAAGTFDS | GP_Gen | 0.28 | 6 of 6 |
| GFTLDSYGIS | VIYSDGRRTFNGLSVK | GRAAGTALS | Rand | nd | 0 of 6 |